## AlphaSeq binding of Ab-14 light chain variants to a spike HR2 peptide

Reference: Engelhart et al. 2022, doi:10.1038/s41597-022-01779-4. File: FLAb, binding data.

Target peptide (SARS-CoV-2 spike, HR2 region): PDVDLGDISGINAS

Parent: Ab-14, a human scFv built as VH, three GGGGS repeats, VL. Only the CDRs of the light chain vary.
VH: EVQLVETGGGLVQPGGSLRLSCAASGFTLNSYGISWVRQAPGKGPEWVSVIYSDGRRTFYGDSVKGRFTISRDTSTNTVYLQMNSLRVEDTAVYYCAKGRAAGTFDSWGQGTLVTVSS
VL: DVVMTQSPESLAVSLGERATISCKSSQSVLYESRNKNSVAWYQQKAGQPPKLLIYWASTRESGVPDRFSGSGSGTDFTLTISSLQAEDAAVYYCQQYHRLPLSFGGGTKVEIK

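Phage display of a naive human antibody library on the peptide gave the parent. The library (AAYL50) carries one to three amino acid substitutions per variant, with no insertions or deletions. The assay is AlphaSeq: two haploid yeast populations carry antibody and antigen on their surface. The frequency of each diploid, read from paired DNA barcodes, reflects how well the two displayed proteins bind. Each replicate has its own calibration line, from reference interactions of the BCL2 family. Mating was done three times.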

Variants are written as CDR1, CDR2 and CDR3 of the light chain (limits as in the source). Parent: KSSQSVLYESRNKNSVA, WASTRES, QQYHRLPLS.
Scale: log10 of Kd in nM, estimated from mating counts; low values are strong binders.
Averages over replicates are reported, and they cover detected replicates only.
"not detected" means that the variant was in the library but no mating with the target was seen in any replicate; the authors take this as a sign of poor binding, and no number exists.
As a blank, each scFv also met three strains without target: over library AAYL50, 18% of these pairings were detected, typically at 4.19 and seldom below 2.99. The control count says in how many pairings with the empty strains this scFv gave a signal.

CDR-L1 | CDR-L2 | CDR-L3 | log10 Kd (nM), mean | detected | empty controls
KNSQSVLYESRNKLSVA | WASTRES | QQAHRLPLS | 3.97 | 1 of 3 | 1 of 9
KSSQSVLYESRNKNSMA | WACTREY | QQYHRLPLS | 3.54 | 1 of 3 | 3 of 9
KSSQSVLYESRNKNSVA | WLSTRES | WQYHGLPLS | not detected | 0 of 3 | 3 of 9
KSSQSVRYESRNKNIVA | WASTRES | QQYHRLPHS | not detected | 0 of 3 | 2 of 9
KSSQSPLYLSRNKNSFA | WASTRES | QQYHRLPLS | 3.73 | 3 of 3 | 4 of 9
KSSQSVLYESYNKNSVA | WACTREC | QQYHRLPLS | 3.07 | 3 of 3 | 4 of 9
KSSQSVLHESRNKFSVA | WASHRES | QQYHRLPLS | 1.24 | 3 of 3 | 3 of 9
KSSQSVLTKSRNKNSVA | WASTRES | QQYHRLYLS | not detected | 0 of 3 | 0 of 9
KSSQSALYESRNKNSVA | WASTRES | AQYHRLPFS | 2.38 | 2 of 3 | 0 of 9
KSSQSVLYESRNKNIVR | WASCRES | QQYHRLPLS | not detected | 0 of 3 | 2 of 9
KSSQSVLYESINKNSVA | WASQRNS | QQYHRLPLS | 0.57 | 3 of 3 | 1 of 9
KSSQSNLYCSRNKNSVA | WASTRES | QLYHRLPLS | 3.80 | 3 of 3 | 4 of 9
NSSQSVLYESRNKNSVA | WASTRES | QQFPRLPLS | 3.67 | 1 of 3 | 2 of 9
ESSQSVLYESRNVISVA | WASTRES | QQYHRLPLS | not detected | 0 of 3 | 0 of 9
KHSQSVLYESRNKNSVA | WASTRES | QMYHRLPLS | 2.83 | 3 of 3 | 2 of 9
KSSQSVLYESRNKNIVY | WASTRES | QQYHRLPMS | 4.33 | 1 of 3 | 1 of 9
KSSQSVLYESRNLSSVA | WASTRES | QQYHRLDLS | not detected | 0 of 3 | 0 of 9
DSSQSHLYESRNKNSVA | WASTREH | QQYHRLPLS | 3.13 | 3 of 3 | 1 of 9
KSSQSVLYESRNKNSVS | EASTRES | KQYHRLPLS | 1.04 | 3 of 3 | 1 of 9
KSSQSVLYESRNKNSVA | WSSTRES | QQHHWLPLS | 4.48 | 1 of 3 | 2 of 9
KSSQSVLYESFNKNSIA | WASTRES | QQTHRLPLS | 0.58 | 3 of 3 | 0 of 9
KSSQMVLMESRNKNSVA | WASTRES | QSYHRLPLS | 1.90 | 3 of 3 | 2 of 9
KSSQSVLYESRNKNSFY | WISTRES | QQYHRLPLS | 3.53 | 1 of 3 | 0 of 9

Further variants, results first:

log10 Kd (nM), mean | detected | empty controls | CDR-L1 | CDR-L2 | CDR-L3
2.08 | 3 of 3 | 0 of 9 | KSSQSELYESRNKNSWA | MASTRES | QQYHRLPLS
1.43 | 3 of 3 | 2 of 9 | KSSQSILYESRNKNSVA | RASTRES | QQYKRLPLS
4.30 | 1 of 3 | 5 of 9 | KSSQSVLYEKRNKNSVA | WASTEES | QQYTRLPLS
not detected | 0 of 3 | 0 of 9 | KSSQGVYYESRNDNSVA | WASTRES | QQYHRLPLS
not detected | 0 of 3 | 0 of 9 | KSWQHVLYESRNKESVA | WASTRES | QQYHRLPLS
5.26 | 1 of 3 | 1 of 9 | KSSQSVTYESRNKNCVA | WASTRAS | QQYHRLPLS
3.83 | 2 of 3 | 6 of 9 | KSSQSVVYESKNKASVA | WASTRES | QQYHRLPLS
1.02 | 3 of 3 | 0 of 9 | KSSQSVLYESSNDNSVA | WASTRES | QQYHRLPLL
not detected | 0 of 3 | 1 of 9 | KSSQSVLYHSRNKNSVA | WASTRES | IQYHRLHLS
not detected | 0 of 3 | 1 of 9 | KSSQSVLYESRNNNSVA | PASTRES | GQYHRLPLS
5.25 | 1 of 3 | 5 of 9 | KSSQSVTYTSRNKNSVA | WASTRES | QRYHRLPLS
not detected | 0 of 3 | 0 of 9 | KSSQSVLYSSRNKNSVA | WASTRES | DQYHFLPLS
4.26 | 3 of 3 | 5 of 9 | KSYQSVLYESRNKNSVA | WASYRES | QQYHRLPRS
3.57 | 3 of 3 | 4 of 9 | KSSYSVLYSRRNKNSVA | WASTRES | QQYHRLPLS
1.71 | 3 of 3 | 2 of 9 | KSSQSELYESRNLNSVA | WASTRES | QQYHRAPLS
not detected | 0 of 3 | 4 of 9 | KSRQSVLYESRNKNSVA | WASTRES | SQYHRLMLS
not detected | 0 of 3 | 1 of 9 | KSSQSVVYESRNKNSVA | WAETMES | QQYHRLPLS
2.91 | 2 of 3 | 0 of 9 | MSSQSVLYESRNKNSVA | TAYTRES | QQYHRLPLS
3.85 | 3 of 3 | 5 of 9 | KSMQSVLYESRNKNSVA | WASTRES | QQYHRLPME
0.11 | 3 of 3 | 1 of 9 | KSSQSVLYESRYKNSVA | GVSTRES | QQYHRLPLS
1.76 | 2 of 3 | 1 of 9 | KSSQSHLIRSRNKNSVA | WASTRES | QQYHRLPLS
2.65 | 3 of 3 | 3 of 9 | KSSQSVLYESRNRNSVA | WASTPES | QQYQRLPLS
0.20 | 3 of 3 | 4 of 9 | KLSQSVLYESDNKNSVA | WASTRPS | QQYHRLPLS

Repeated from above, the 6 best binders with a signal in all replicates:

CDR-L1	CDR-L2	CDR-L3	log10 Kd (nM), mean	detected	empty controls
KSSQSVLYESRYKNSVA	GVSTRES	QQYHRLPLS	0.11	3 of 3	1 of 9
KLSQSVLYESDNKNSVA	WASTRPS	QQYHRLPLS	0.20	3 of 3	4 of 9
KSSQSVLYESINKNSVA	WASQRNS	QQYHRLPLS	0.57	3 of 3	1 of 9
KSSQSVLYESFNKNSIA	WASTRES	QQTHRLPLS	0.58	3 of 3	0 of 9
KSSQSVLYESSNDNSVA	WASTRES	QQYHRLPLL	1.02	3 of 3	0 of 9
KSSQSVLYESRNKNSVS	EASTRES	KQYHRLPLS	1.04	3 of 3	1 of 9